Reference: patent US11225469B2, “Inhibitors of phosphoglycerate dehydrogenase (PHGDH) and uses thereof” (Whitehead Institute for Biomedical Research, priority 2015, dated 2022)

Amino acid sequences for entries named in this document (tags omitted).
UniProt O43175, whole entry: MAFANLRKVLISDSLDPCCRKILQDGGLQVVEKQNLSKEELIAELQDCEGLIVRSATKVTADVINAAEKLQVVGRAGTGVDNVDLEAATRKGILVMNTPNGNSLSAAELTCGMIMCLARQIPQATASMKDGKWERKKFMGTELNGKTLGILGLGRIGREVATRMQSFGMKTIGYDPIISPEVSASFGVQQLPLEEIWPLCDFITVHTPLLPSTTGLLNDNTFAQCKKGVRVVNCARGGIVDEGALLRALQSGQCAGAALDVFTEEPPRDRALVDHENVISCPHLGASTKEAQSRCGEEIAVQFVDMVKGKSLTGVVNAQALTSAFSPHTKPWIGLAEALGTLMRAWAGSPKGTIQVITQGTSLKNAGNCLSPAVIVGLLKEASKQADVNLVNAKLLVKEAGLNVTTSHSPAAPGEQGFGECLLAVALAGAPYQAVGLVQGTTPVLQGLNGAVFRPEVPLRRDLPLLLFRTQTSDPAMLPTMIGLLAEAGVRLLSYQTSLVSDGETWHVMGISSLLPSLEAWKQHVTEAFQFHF

Target: PHGDH (Homo sapiens (Human), UniProt O43175)
Experiment: PHGDH inhibition, coupled assay with PSAT1/PSPH and diaphorase/resazurin readout
Assay type: biochemical
Settings: read-out: PHGDH IC50; Table E9; mixture with PSAT1, PSPH; diaphorase/resazurin reporter

Work on `Cc1cc(C)nc(NC(=S)N2CCN(c3cccc([N+](=O)[O-])c3)CC2)c1` yielded an IC50 of 5 to 10 µM.
